By UniProt entry, the sequences of proteins in these tests, tags left out. Where a name states a change or a piece, a line headed by the entry shows the natural chain unless it says otherwise.
UniProt P06239: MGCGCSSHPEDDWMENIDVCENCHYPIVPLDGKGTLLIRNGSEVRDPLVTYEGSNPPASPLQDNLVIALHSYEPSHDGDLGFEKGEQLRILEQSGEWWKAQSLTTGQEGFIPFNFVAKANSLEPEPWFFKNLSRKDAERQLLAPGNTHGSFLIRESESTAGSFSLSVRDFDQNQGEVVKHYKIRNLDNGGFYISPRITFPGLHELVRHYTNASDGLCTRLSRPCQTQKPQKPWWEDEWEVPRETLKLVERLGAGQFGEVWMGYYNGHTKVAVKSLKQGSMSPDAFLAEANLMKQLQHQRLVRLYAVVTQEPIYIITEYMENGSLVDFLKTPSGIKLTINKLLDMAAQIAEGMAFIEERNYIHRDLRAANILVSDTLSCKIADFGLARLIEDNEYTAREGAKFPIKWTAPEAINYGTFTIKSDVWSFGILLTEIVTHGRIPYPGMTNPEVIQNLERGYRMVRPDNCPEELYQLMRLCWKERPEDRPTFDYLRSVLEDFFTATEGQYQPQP

In ChEMBL document CHEMBL1154389, “Discovery of pyrimidine benzimidazoles as Src-family selective Lck inhibitors. Part II” (Bioorg Med Chem Lett, 2009):

Target: Tyrosine-protein kinase Lck (Homo sapiens, UniProt P06239)
Assay: Inhibition of LCK

For Cc1ccc(NC(=O)c2ccncc2C(C)(C)C)cc1Nc1nc2ccccc2n1-c1cc(N)ncn1, the IC50 was 10 nM.
